Results reported in PMC4420714 (Peptides, 2015).
Values joined by “and” are separate entries in the source; they are usually repeats but may differ in a detail not shown here. Equal values may be shown once. “Also recorded” adds a separate entry of the source. Read-outs that look alike come from different tables or passages of the source.

Chains of the proteins cited; added tags and fusions are not shown. Residues count along the entry.
UniProt P32241, 31-457, species assumed: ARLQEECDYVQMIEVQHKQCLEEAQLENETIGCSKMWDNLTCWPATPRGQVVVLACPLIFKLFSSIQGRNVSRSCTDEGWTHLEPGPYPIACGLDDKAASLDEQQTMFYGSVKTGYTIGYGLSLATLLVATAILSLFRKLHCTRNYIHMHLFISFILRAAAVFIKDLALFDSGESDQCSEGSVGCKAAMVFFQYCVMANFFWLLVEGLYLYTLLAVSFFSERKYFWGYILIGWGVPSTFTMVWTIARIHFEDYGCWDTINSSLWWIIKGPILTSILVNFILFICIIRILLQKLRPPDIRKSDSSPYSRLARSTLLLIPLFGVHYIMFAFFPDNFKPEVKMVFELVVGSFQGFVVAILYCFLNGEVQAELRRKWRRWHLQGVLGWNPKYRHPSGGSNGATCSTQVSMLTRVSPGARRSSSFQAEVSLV

What was measured:
VPAC1-R [1] = molecular target: T1, VPAC1-R (Homo sapiens, UniProt P32241); test: Binding of 125I-VIP to VPAC1-R/PANC-1 cells; conditions: for IC50: read-out: IC50 VPAC1-R, VPAC1-R/PANC-1; for decrease in affinity for VPAC1-R/PANC-1 cells compared to native PACAP38 (or PACAP27, VIP): ratio of binding IC50, analog vs native parent peptide
VPAC1-R [2] = molecular target: T1, VPAC1-R; test: Binding of 125I-VIP to T47D breast cancer cells containing native VPAC1-R; conditions: read-out: IC50 VPAC1-R, T47D
VPAC2-R [3] = molecular target: T2, VPAC2-R (Homo sapiens, UniProt P41587); test: Binding of 125I-PACAP27 to VPAC2-R/PANC-1 cells; conditions: read-out: IC50 VPAC2-R, VPAC2-R/PANC-1
T2 sequence (P41587 24-438): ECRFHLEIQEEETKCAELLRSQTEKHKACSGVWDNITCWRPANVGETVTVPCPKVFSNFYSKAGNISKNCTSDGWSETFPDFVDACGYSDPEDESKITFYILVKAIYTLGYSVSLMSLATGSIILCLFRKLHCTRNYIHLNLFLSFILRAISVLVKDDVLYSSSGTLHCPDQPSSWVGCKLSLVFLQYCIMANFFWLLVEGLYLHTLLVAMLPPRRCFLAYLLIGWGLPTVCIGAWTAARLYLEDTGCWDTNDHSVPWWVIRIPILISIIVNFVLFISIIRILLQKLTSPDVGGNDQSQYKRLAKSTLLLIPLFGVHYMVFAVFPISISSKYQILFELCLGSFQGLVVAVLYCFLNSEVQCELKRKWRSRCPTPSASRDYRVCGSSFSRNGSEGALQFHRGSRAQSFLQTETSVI

VPAC2-R [4] = molecular target: T2, VPAC2-R; assay type: binding; conditions: read-out: IC50 VPAC2-R, Sup-T1; Sup-T1 cells, 75 pM 125I-Ro 25-1553, 37°C
VPAC1-R [5] = molecular target: T1, VPAC1-R; test: [3H]cAMP generation in VPAC1-R/PANC-1 cells; assay type: cell-based; conditions: for EC50: read-out: [3H]cAMP VPAC1-R/PANC-1 EC50; for greater affinity than potency for stimulating cAMP generation, VPAC1-R/PANC-1 cells: EC50 cAMP over binding IC50; for [3H]cAMP VPAC1-R/PANC-1 % max (agonist class): relative to PACAP38, up to 1 µM
VPAC1-R [6] = molecular target: T1, VPAC1-R; test: [3H]cAMP generation in T47D cells; assay type: cell-based; conditions: for EC50: read-out: [3H]cAMP T47D EC50; for [3H]cAMP T47D % max (agonist class): relative to PACAP38, up to 1 µM
VPAC2-R [7] = molecular target: T2, VPAC2-R; test: [3H]cAMP generation in VPAC2-R/PANC-1 cells; assay type: cell-based; conditions: read-out: [3H]cAMP VPAC2-R/PANC-1 EC50; VPAC2-R/PANC-1 cells
[8] = ref [4],[4],[7],[31]; cited from earlier work
PAC1-R [9] = molecular target: T3, PAC1-R (Homo sapiens, UniProt P41586); test: Binding of 125I-PACAP27 to PAC1-R stably transfected NIH 3T3 cells; conditions: for IC50: read-out: IC50 PAC1-R; for decrease in affinity for PAC1-R cells compared to native PACAP38 (or PACAP27): ratio of binding IC50, analog vs native parent peptide
T3 sequence (P41586 21-468): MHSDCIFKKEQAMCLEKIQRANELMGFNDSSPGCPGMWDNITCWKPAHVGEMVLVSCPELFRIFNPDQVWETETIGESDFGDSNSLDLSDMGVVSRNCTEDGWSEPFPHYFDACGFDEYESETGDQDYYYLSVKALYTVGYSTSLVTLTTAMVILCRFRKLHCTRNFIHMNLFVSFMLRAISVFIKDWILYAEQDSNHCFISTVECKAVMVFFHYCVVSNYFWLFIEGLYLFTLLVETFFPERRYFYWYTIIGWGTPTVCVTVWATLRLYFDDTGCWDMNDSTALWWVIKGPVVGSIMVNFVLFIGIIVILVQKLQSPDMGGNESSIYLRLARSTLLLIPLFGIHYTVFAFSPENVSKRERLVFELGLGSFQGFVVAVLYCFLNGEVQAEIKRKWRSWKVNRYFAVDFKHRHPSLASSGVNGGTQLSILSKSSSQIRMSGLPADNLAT

PAC1-R [10] = molecular target: T3, PAC1-R; test: [3H]cAMP generation in PAC1-R cells; assay type: cell-based; conditions: for EC50: read-out: [3H]cAMP PAC1-R EC50; for higher potency for PAC1-R cells compared to VPAC1-R/PANC-1 cells / higher potency for PAC1-R cells compared to VPAC2-R/PANC-1 cells: cAMP generation EC50 ratio
PAC1-R [11] = molecular target: T3, PAC1-R; test: [3H]Inositol phosphate generation; assay type: cell-based; conditions: PAC1-R cells; for less potent at stimulating [3H]IP (PLC) than cAMP: IP EC50/cAMP EC50; for efficacy for generation of cAMP and [3H]IP: compared with PACAP38; for EC50: read-out: [3H]IP EC50, 60 min 37°C, Fig. 9

| Substance | IC50 (VPAC1-R [1]) | IC50 (VPAC1-R [2]) | IC50 (VPAC2-R [4]) | EC50 (VPAC1-R [5]) | EC50 (VPAC1-R [6]) | EC50 (VPAC2-R [7]) | IC50 (PAC1-R [9]) | EC50 (PAC1-R [10]) | decrease in affinity for PAC1-R cells compared to native PACAP38 (or PACAP27) (PAC1-R [9]) | decrease in affinity for VPAC1-R/PANC-1 cells compared to native PACAP38 (or PACAP27, VIP) (VPAC1-R [1]) | higher potency for PAC1-R cells compared to VPAC1-R/PANC-1 cells (PAC1-R [10]) | higher potency for PAC1-R cells compared to VPAC2-R/PANC-1 cells (PAC1-R [10]) | [3H]cAMP T47D % max (agonist class) (VPAC1-R [6]; T47D cells) | EC50 (PAC1-R [10]; PAC1-R cells) | greater affinity than potency for stimulating cAMP generation, VPAC1-R/PANC-1 cells (VPAC1-R [5]) | EC50 (VPAC1-R [5]; VPAC1-R/PANC-1 cells) | EC50 (VPAC1-R [6]; T47D cells) | less potent at stimulating [3H]IP (PLC) than cAMP (PAC1-R [11]) | efficacy for generation of cAMP and [3H]IP (PAC1-R [11]) | EC50 (PAC1-R [11]) | other results |
| --- | --- | --- | --- | --- | --- | --- | --- | --- | --- | --- | --- | --- | --- | --- | --- | --- | --- | --- | --- | --- | --- |
| PACAP38 [reference compound] | 1.35 ± 0.04 nM | 1.29 ± 0.05 nM | 6.03 ± 0.3 nM | 0.54 ± 0.05 nM | 3.24 ± 0.19 nM | 1.38 ± 0.1 nM | – | – | – | – | – | – | – | – | – | – | – | – | – | – | IC50 (VPAC2-R [3]): 1 ± 0.11 nM; plasma half-life [8]: 5 to 10 min |
| [D-Ser^2]PACAP38 [Peptide P16] | 417 ± 19 nM | 170 ± 8 nM | 63.1 ± 1.6 nM | 11 ± 1 nM | 19.9 ± 1.8 nM | 33.1 ± 1.9 nM | 7.94 ± 0.5 nM | 2.57 ± 0.07 nM | – | – | – | – | – | – | – | – | – | – | – | – | IC50 (VPAC2-R [3]): 14.8 ± 0.9 nM |
| [D-Ser^2,Lys(Palmitoyl)^38]PACAP38 [Peptide P13] | 11.5 ± 0.9 nM | 3.9 ± 0.29 nM | 13.2 ± 0.5 nM | 4.07 ± 0.27 nM | 5.25 ± 0.25 nM | 3.47 ± 0.2 nM | 7.94 ± 0.48 nM | 0.15 ± 0.01 nM | 11–30 fold | 2–10 fold | 16–50 fold and 15-to-666 fold | 22–55 fold | pAg (78) | – | – | – | – | – | – | – | [3H]cAMP T47D % max of partial agonist (VPAC1-R [6]; T47D cells, partial agonist maximum): pAg (78) % max |
| [Iaa^1]PACAP38 [Peptide P42] | – | – | 3.16 ± 0.21 nM | – | – | 5.13 ± 0.42 nM | – | – | – | 2–10 fold | 6–15 fold | 7-to-15 fold | – | 0.4 ± 0.01 nM | 1.2–65.2 fold | 2.63 ± 0.37 nM | 5.75 ± 0.73 nM | 25 fold | fully efficacious | 19.3 nM | – |
| [Iaa^1,D-Ser^2]PACAP38 [Peptide P43] | – | – | 25.7 ± 1.4 nM | – | – | 20.1 ± 1.1 nM | – | – | 5–10 fold | 11–40 fold | 2-to-5 fold | 12–140 fold | – | 0.5 ± 0.01 nM | – | 2.63 ± 1.8 nM | 56.2 ± 3.9 nM | 377 fold | fully efficacious | 256 nM | – |
| [Iaa^1,Ala^22]PACAP38 [Peptide P45] | – | – | > 1000 nM | – | – | 550 ± 17 nM | – | – | 5–10 fold | 11–40 fold | 2-to-5 fold | > 800 fold | – | 0.6 ± 0.05 nM | – | 2.63 ± 0.46 nM | 118 ± 10 nM | 106 fold | fully efficacious | 140 nM | higher affinity (selectivity) for PAC1-R cells over VPAC2-R/PANC-1 cells (PAC1-R [9]; IC50 VPAC2-R/PANC-1 divided by IC50 PAC1-R, binding): > 400 fold; [3H]cAMP VPAC1-R/PANC-1 % max (agonist class) (VPAC1-R [5]; VPAC1-R/PANC-1 cells): Ag (1 µM, 74) |
| [Lys(palmitoyl)^38]PACAP38 [Peptide P12] | 8.13 ± 0.46 nM | 4.4 ± 0.2 nM | 5.89 ± 0.4 nM | 5.01 ± 0.35 nM | 5.45 ± 0.42 nM | 5.37 ± 0.25 nM | 6.31 ± 0.26 nM | 0.21 ± 0.02 nM | 11–30 fold | 2–10 fold | 16–50 fold | 22–55 fold | – | – | – | – | – | – | – | – | – |
| [Iaa^1,D-Tyr^2,Ala^22]PACAP38 [Peptide P49] | – | – | 200 ± 16 nM | – | – | 501 ± 36 nM | – | – | > 350 fold | 180-to-620 fold | 2-to-5 fold | 2–5 fold | Ag (1 µM, 54) | 98 ± 2 nM | 1.2–65.2 fold | 389 ± 33 nM | 832 ± 63 nM | – | – | – | lower affinity for PAC1-R cells than VPAC2-R/PANC-1 cells (PAC1-R [9]; binding IC50 ratio, VPAC2-R preferring): 2–9 fold; [3H]cAMP T47D % max, agonist activity at 1 µM, still increasing (VPAC1-R [6]; T47D cells, at 1 µM): Ag (1 µM, 54) % max |
| [β-Ala^3,Ala^16,17]PACAP38 [Peptide P21] | – | – | 323 ± 14 nM | – | – | > 1000 nM | – | – | > 350 fold | 180-to-620 fold | 2-to-5 fold | 2–5 fold | No Act | 602 ± 37 nM | 1.2–65.2 fold | > 1000 nM | > 1000 nM | – | – | – | greater affinity than potency, PAC1-R cells (PAC1-R [10]; EC50 cAMP over binding IC50): 1.2- to 64 fold; [3H]cAMP PAC1-R % max (agonist class) (PAC1-R [10]; PAC1-R cells, relative to maximal stimulation by PACAP38, up to 1 µM): Ag (1 µM, 61); [3H]cAMP VPAC1-R/PANC-1 % max (agonist class) (VPAC1-R [5]; VPAC1-R/PANC-1 cells): no agonist activity; also recorded: No Act |
